GIV-Gai inh: inhibitors of GIV GBA-motif binding to rat Galpha-i3; P08753; Galpha-i3/FITC-GIV peptide fluorescence polarization, 90 min; hits give low values; scaled: aluminum fluoride 0%, vehicle 100%; percent of control (FP), % (test concentration not listed); 0.42% of 210,000 active; AID 1224905;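 active = replicate mean at 85% of control or lower, very high polarization wells dropped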;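 also: wells of about 15 µL received 100 nL stock; the first replicate is given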
GIV-Gai FP conf: confirmation of inhibitors of GIV binding to rat Galpha-i3; shares compounds with GIV-Gai inh; FITC-GIV peptide binding to Galphai3, fluorescence polarization; stronger effect = lower value; fluorescence polarization, mP at 100 µM; hit rate 38% among 580; AID 1259350;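 active means inhibition score of 15 or more, meaning 100 minus mean polarization as percent of control over three replicates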
GIV-Gai AS conf: GIV-Galpha-i3 inhibition, AlphaScreen confirmation; shares compounds with GIV-Gai inh; AlphaScreen Galphai3-GIV binding, purified proteins, 90 min; stronger effect = lower value; AlphaScreen counts at 100 µM; hit rate 39% among 580; AID 1259351;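 active means inhibition score at or above a set limit, where the score is 100 minus the three-replicate mean percent of control signal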
* hit, by the source's call. The entries come from a sample that favours hits as a whole.

SMILES	GIV-Gai inh	others
O=C(CCc1ccccc1)NCCc1nc(-c2ccc(Cl)cc2)n[nH]1	95.8
COc1ccc(NC(=O)CSC2=C(C#N)C(c3ccccc3)C(C(=O)Nc3ccccc3)=C(C)N2)cc1 (configuration not stated)	115.8
NC(=O)NC1CCS(=O)(=O)C1 (configuration not stated)	104.9
CCc1ccc(C2C(C(=O)OC)=C(C)NC(C)=C2C(=O)OC)cc1	98.1
CC1(C)CC(=O)C2=C(C1)OC1=C(C(=O)CC(C)(C)C1)C2c1ccc(-c2ccccc2C(=O)O)o1	106.7
CC1(C)CC(=O)C(C2(O)C(=O)c3ccccc3C2=O)C(=O)C1	65.5*	GIV-Gai FP conf=58.2*;GIV-Gai AS conf=44260
Cc1ccc(C2(O)C(=O)c3ccccc3C2=O)c(O)c1C	107.7
Cc1cccc(NCc2nnc(-c3ccccc3)o2)c1	104.1
CCSc1nnc(-c2c[nH]c3ccccc23)n1CCOC	100.4
CCOC(=O)C1=C(C(=O)OCC)SC(=C2C(=S)C(C)(C)N(C(=O)c3ccc(C(C)(C)C)cc3)c3ccc(OC)cc32)S1	107.2
CCCN1CCCc2cc(CN)ccc21	64.7*	GIV-Gai FP conf=51.3*;GIV-Gai AS conf=9116*
COc1ccc(C(=O)CN2CCCc3cc(C)ccc32)cc1	123.6
CCCN1CCCc2cc(CN(CCOC)C(=S)Nc3ccccc3OC)ccc21	113.9
Cc1ccc2c(c1)CCCN2C(=O)CC(=O)N1CCCc2cc(C)ccc21	103.8
CCN1CCCc2cc(O)ccc21	-9.7*	GIV-Gai FP conf=8.3*;GIV-Gai AS conf=5580*
CCCN1CCCc2cc(CN(CCCN3CCOCC3)C(=O)Nc3ccccc3)ccc21	103.5
N#Cc1cccc(CSc2ccccn2)c1	103.3
Cc1sc(-c2nc(-c3ccccc3)no2)cc1S(=O)(=O)N1CCCCC1C (configuration not stated)	100.5
CCOC(=O)c1sc(NC(=O)c2cc(S(N)(=O)=O)c(Cl)cc2Cl)c(C(=O)OCC)c1C	106.5
Cc1nc(N2CCN(c3ccccn3)CC2)c2c(C)c(C(=O)NC(C)c3ccccc3)sc2n1 (configuration not stated)	101.6
O=C(Nc1cccc(CCc2nc3ccccc3[nH]2)c1)c1cc2cc(Cl)ccc2[nH]1	106.1
CC(=O)Nc1ccc(-c2noc(C3CCCN(C(=O)c4ccc(F)cc4)C3)n2)cc1 (configuration not stated)	104.2
CCOc1ccc(NC(=O)NS(=O)(=O)c2ccc(C)cc2)cc1	98.0
CCCn1cnc2sc(C(=O)O)c(C)c2c1=O	101.9
CCCN1CC=C2C(C#N)=C(N)C(C#N)(C#N)C(c3ccc(OC)cc3)C2C1 (configuration not stated)	111.0
CCCN1CC=C2C(C#N)=C(N)C(C#N)(C#N)C(c3cccc(OC)c3)C2C1 (configuration not stated)	104.8
CCCN1CC=C2C(C#N)=C(N)C(C#N)(C#N)C(c3ccc(OCC(N)=O)cc3)C2C1 (configuration not stated)	85.3*	GIV-Gai FP conf=70.8;GIV-Gai AS conf=23647
O=C(c1ccc(Br)cc1)N1CCC(c2nc(-c3ccccc3)no2)CC1	102.6
COc1ccc(NS(=O)(=O)c2ccc3[nH]c(=O)c(=O)[nH]c3c2)cc1OC	102.1
CN(Cc1ccccc1)S(=O)(=O)c1ccc(-c2nc(C#N)c(N3CCCC3)o2)cc1	96.2

Nothing new here: entries from further up.
SMILES	GIV-Gai inh	others
O=C(CCc1ccccc1)NCCc1nc(-c2ccc(Cl)cc2)n[nH]1	95.8
COc1ccc(NC(=O)CSC2=C(C#N)C(c3ccccc3)C(C(=O)Nc3ccccc3)=C(C)N2)cc1 (configuration not stated)	115.8
NC(=O)NC1CCS(=O)(=O)C1 (configuration not stated)	104.9
CCc1ccc(C2C(C(=O)OC)=C(C)NC(C)=C2C(=O)OC)cc1	98.1
CC1(C)CC(=O)C2=C(C1)OC1=C(C(=O)CC(C)(C)C1)C2c1ccc(-c2ccccc2C(=O)O)o1	106.7

(listing goes on)
SMILES	GIV-Gai inh	others
CN(Cc1ccc(Cl)cc1)C(=O)CCc1nc(-c2cc3ccccc3[nH]c2=O)no1	102.7
CCCCCCC(=O)Nc1cc2nc3c(nc2cc1C)c(=O)n(C)c(=O)n3C	105.2
CCC(=O)Nc1cc2nc3[nH]c(=O)n(C)c(=O)c3nc2cc1C	21.1*	GIV-Gai FP conf=45.6*;GIV-Gai AS conf=34033
CCCCCCC(=O)Nc1cc2nc3[nH]c(=O)n(C)c(=O)c3nc2cc1C	100.3
COc1ccc(-c2nn3c(N4CCC(C)CC4)cc(C)nc3c2C)cc1OC	107.6
COc1ccc(-c2ccc(SCc3nc(-c4ccccc4Br)no3)nn2)cc1OC	101.4
Cn1cc(CCC(=O)NCc2cccc(Cl)c2)c2ccccc21	106.3
O=C(NCc1cccc(Cl)c1)c1ccc2c(c1)N(Cc1ccccc1)CCS2	104.3
O=C(NCc1cccc(Cl)c1)c1cc2ccccn2c1	75.9*	GIV-Gai FP conf=88.7;GIV-Gai AS conf=9777*
Brc1ccc2c(c1)C1CC(c3ccco3)=NN1C(c1cccs1)O2 (configuration not stated)	161.7
Fc1ccccc1CNc1nc(-c2nnc(-c3ccccc3)o2)nc2ccccc12	107.4
CCOc1c(OC)cc(/C=C2/C(=O)N(c3ccc(S(N)(=O)=O)cc3)N=C2C)cc1[N+](=O)[O-]	94.5
COc1cc(/C=C2\C(=O)N(c3ccc(S(N)(=O)=O)cc3)N=C2C)cc(Br)c1OCc1ccccc1	66.3*	GIV-Gai FP conf=58.6;GIV-Gai AS conf=27596*
COc1cc(/C=C2\C(=O)N(c3ccc(S(N)(=O)=O)cc3)N=C2C)cc(Cl)c1OCc1ccccc1	96.4

Screening results as filed in PubChem.
